Tested on: IPEC-J2 cells
Experiment: TEER cell culture assay: protective effect against polypeptide fungitoxins
Type: cell-based, porcine
Settings: toxin 0.2-10 μM added on day 8
Description: In order to test the correlations of polypeptide fungitoxins on epithelial tissue under controlled conditions, in vitro studies were performed. Therein, well-characterized test systems based on cell cultures and described in the literature were employed. For feed additives, epithelial cells from the respective organ in question, e.g. in the present case IPEC-J2 cells from the porcine intestine, were preferred. The used epithelial cells from the porcine intestine offer the advantage of being non-transformed cells still having all the important properties of normal intestinal cells and large physiological similarities such as the formation of viable tight junction proteins, which are above all essential for the intestinal barrier, as well as the expression of characteristic enzymes and transport systems (e.g. P-glycoprotein, cytochrome P450 3A4, vit. B 12 transporters etc.).
For the in vitro examinations of a Glycyrrhiza dry extract, the latter was extracted once again, thus producing a secondary Glycyrrhiza extract. […]
Differentiated cells form a cell barrier, being strongly interconnected by tight junction proteins. […] The intactness of the cell barrier is measured by means of a volt-ohmmeter: The electrical resistance between the two compartments is referred to as TEER (transepithelial electrical resistance) value and represented in kOhm×cm^2. […]

beauvericin
TEER value after addition of toxin (negative control): lowered

— patent publication US11096980B2, “Method of using glycyrrhiza plant-based preparation to reduce toxic effect of polypeptide fungitoxin” (priority 2016, dated 2021)
